PMC7429351, “Comparison of ligand binding and conformational stability of human calmodulin with its homolog from the malaria parasite Plasmodium falciparum” (FASEB BioAdvances, 2020)
Where “and” joins values, the source holds several entries; their conditions need not be identical. Equal values may be shown once.

Biological target: T1, Pf CaM (Plasmodium falciparum, UniProt P62203)
T1 construct: properties of the whole protein can be explored with differential scanning calorimetry; made in house; host or cells: E coli
Assay: biochemical
Type: binding
Details: K d, ITC, 25°C, 1 mmol/L CaCl2, one set of sites model
Excerpt: Titration curves were fitted with the models provided by the built‐in Origin software (MicroCal.).

NCCCCCCNS(=O)(=O)c1cccc2c(Cl)cccc12 [W7, N‐(6‐aminohexyl)‐5‐chloro‐1‐naphthalenesulfonamide]
Kd: 9.4 µM and 10 µM
